Laboratory results taken from patent publication US8563731B2, “Mesylate salt of 5-(2-{[6-(2,2-difluoro-2-phenylethoxy)hexyl]jamino}-1-hydroxyethyl)-8-hydroxyquinolin-2(1H)-one as agonist of the β2 adrenergic receptor” (Almirall, S.A., priority 2008, dated 2013).

Test: Water-Solubility Test
Details: in water at room temperature

Formoterol Fumarate
Water Solubility @ 25° C. (mg/ml as Base): 1.81 mg/ml as Base
